Experimental data: PMC3570589 (Molecular cell, 2012)

Biological target: T1, PHF1 Tudor, wt (Homo sapiens, UniProt O43189)
T1 sequence (O43189 7-83): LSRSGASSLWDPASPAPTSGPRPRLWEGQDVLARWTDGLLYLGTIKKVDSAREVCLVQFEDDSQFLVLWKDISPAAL
Test: ITC binding of PHF1 Tudor, wt, to histone peptides
Settings: recombinant PHF1 Tudor wt, curve fit

H3(1–15)K9me3: histone H3 peptide, residues 1–15, trimethylated at lysine 9
N: 0.70 ± 0.23
ΔH: -0.817 ± 0.343 kcal/mol
ΔS: 17.3 cal/mol/deg
